Experimental findings from PubChem BioAssay AID652163 (Broad Institute, 2013) are described below.

By UniProt entry, the sequences of proteins in these tests, tags left out.
UniProt P26447, whole entry: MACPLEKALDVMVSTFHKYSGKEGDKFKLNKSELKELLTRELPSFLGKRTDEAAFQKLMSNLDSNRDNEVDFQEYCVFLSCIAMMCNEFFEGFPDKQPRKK

This is a selection; strong and weak results do not stand in their true shares. Some tests of the compounds listed are not included; inactive here does not mean inactive elsewhere. Activity calls are given as the source filed them.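 Rule for the calls: active = mean inhibition of at least 70% across replicates, with every replicate also reaching that level; inconclusive = mean inhibition reaches 70% but some replicates fall short; inactive = mean inhibition below 70%.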

The target of this test is Protein S100-A4 (Homo sapiens) (UniProt P26447). Nature of the test: human S100A4 protein-peptide interaction blockers – biochemical, fluorescence polarization, TAMRA-MyoIIA peptide, primary screen (AID 652163). To be noted: at 10.7 µM, hits give high values. In short, it runs like this:
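Test system: S100A4 monomer protein; Medium: HEPES pH 7.2 with CaCl2, KCl, NaCl, DTT, Triton; Probe or stimulus: TAMRA-labelled myosin IIA heavy-chain peptide probe, 5 nM; Doses: one dose per compound; Times: polarization read 5 min after assay mix addition, stable 5–60 min; Benchmarks: neutral control DMSO, positive control TFP.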
For orientation: In fluorescence polarisation assays a small probe gives low polarisation when free and higher when bound to something large.
For orientation: inhibition means the relative decrease from the control value, in per cent. Take `O=C(OCCN1CCCC1)C(O)(c1ccccc1)c1ccccc1`: the inhibition is inactive: 2.88%.
With `CC(C)Oc1ccc(C(=O)NCC2(N(C)C)CCCCC2)cc1`, the inhibition was inactive: -15.5%.
Next, `COc1ccc(Br)c(C(=O)NCC2(N3CCCCC3)CCCCC2)c1`: inactive: -40.8%.
Consider `C=C(C)C#CC(O)(C(=O)OC1CCN(C)CC1)c1ccccc1` (configuration not stated), for which the inhibition was inactive: 0.316%.
The value for `COc1cc(C(=O)NCC2(N(C)C)CCCCC2)c([N+](=O)[O-])cc1OC` was inactive: 3.92%.
Next, `CN(C)C1(CNC(=O)c2ccc(Br)cc2)CCCCC1`: inactive: -4.86%; `O=C(NCC1(N2CCCCC2)CCCCC1)c1cccc(Cl)c1`: inactive: -24.4%; `COc1ccc(Cl)cc1C(=O)NCC1(N(C)C)CCCCC1`: inactive: -4.86%.
Regarding `COc1cccc(C(=O)NCC2(N3CCCCC3)CCCCC2)c1`, the inhibition is inactive: -8.6%.
The value for `CN(C)C1CCCC1OC(=O)C(O)(c1ccccc1)c1ccccc1` (configuration not stated) was inactive: -3.14%.
Take `CN(C)c1ccc(C(=O)NCC2(N(C)C)CCCCC2)cc1`: the inhibition is inactive: -15.4%.
For `Cc1ccccc1C(=O)NCC1(N2CCCCC2)CCCCC1`, the inhibition is inactive: -3.3%.
The value for `O=C(NCC1(N2CCCCC2)CCCCC1)c1cccc(Br)c1` was inactive: -5.41%; that for `Cc1cc(C(=O)NCC2(N3CCCCC3)CCCCC2)ccc1[N+](=O)[O-]` was inactive: -2.3%; that for `COc1ccc(C(=O)NCC2(N(C)C)CCCCC2)cc1` was inactive: 1.26%.
The value for `O=C(NCC1(N2CCCCC2)CCCCC1)c1cc(F)c(F)cc1Cl` was inactive: -8.48%.
Next, `C=CCN1CCN(CCOC(=O)C(O)(c2ccccc2)c2ccccc2)CC1`: inactive: 1.39%; `CN1[C@@H]2CC[C@H]1CC(OC(=O)C(O)(c1ccccc1)c1ccccc1)C2` (some centres not stated): inactive: -5.41%.
Turning to `O=C(NCC1(N2CCCCC2)CCCCC1)c1cc([N+](=O)[O-])ccc1Cl`, the inhibition is inactive: -6.8%.
Take `Cc1ccc(C(=O)NCC2(N3CCCCC3)CCCCC2)cc1`: the inhibition was inactive: -8.1%.
The value for `COc1cc(SC)ccc1C(=O)NCC1(N(C)C)CCCCC1` was inactive: -3.06%.
The value for `CCN(CC)CC(C)C(C)OC(=O)C(O)(c1ccccc1)c1ccccc1` (configuration not stated) was inactive: -1.53%.
